Calls of active or inactive are those of the source. The rule behind the calls is not given here.
Tested on: Rattus norvegicus
Test: Anti-allodynic activity in MSU-induced Wistar rat gouty arthritis model assessed as mechanical allodynia at 0.5 mg/kg, iv administered once daily for 7 days and measured on day 2
Assay type: functional, organism-based
Settings: time 7.0 day

Which Activity does the source give for `COc1cc2c(c(OC)c1OC)-c1ccc(OC)c(=O)cc1[C@@H](NC(C)=O)CC2` here?
Its Activity is “Active”.

Source: ChEMBL document CHEMBL5214989, “Overcoming Preclinical Safety Obstacles to Discover (S)-N-((1,2,3,5,6,7-Hexahydro-s-indacen-4-yl)carbamoyl)-6-(methylamino)-6,7-dihydro-5H-pyrazolo[5,1-b][1,3]oxazine-3-sulfonamide (GDC-2394): A Potent and Selective NLRP3 Inhibitor” (J Med Chem, 2022)
